From patent US20060160114A1, “Reagents and methods for predicting drug resistance” (Oncotech, Inc., priority 2004, published 2006)

Tested on: tumor cells from patient tumor samples
Test: Extreme Drug Resistance (EDR) assay, tritiated thymidine incorporation in soft agarose culture
Assay type: cell-based, human
Conditions: of the sixteen tumors that were EDR to paclitaxel
Description: In the practice of this assay, tumor cells are taken from a cancer biopsy and exposed to cancer chemotherapeutics in culture. During the culture period, radioactive thymidine is added, which is incorporated into the DNA of growing and dividing cancer cells (which are thus resistant to the cytostatic or cytotoxic effects of the cancer chemotherapeutic). Tritiated thymidine is not incorporated into cells that are sensitive to the drug and reduce or suspend growth and division in response to the drug. […] By measuring the amount of radioactivity in a sample, the assay determines the relative resistance of an individual patient's cancer cells to a number of different chemotherapies. […]
The EDR assay is an agarose-based culture system, using tritiated thymidine incorporation to define in vitro drug response. […] The radioactivity trapped on the filters was counted with an LS-6500 scintillation Counter (Beckman, Fullerton, Calif.). […] Detectable radioactivity for this group was considered non-specific background related to debris trapping of tritiated thymidine on the filter. After subtracting background control values, percent control inhibition (PCI) of proliferation was determined by comparing thymidine incorporation by the treatment group with incorporation by the negative control group: PCI=100%×[1−(CPM treatment group/CPM control group)]. […]

SMILES: CC(=O)O[C@@]12CO[C@@H]1C[C@H](O)[C@@]1(C)C(=O)[C@H](O)C3=C(C)[C@@H](OC(=O)[C@H](O)[C@@H](NC(=O)OC(C)(C)C)c4ccccc4)C[C@@](O)([C@@H](OC(=O)c4ccccc4)[C@H]21)C3(C)C [docetaxel]
- number of tumors that were EDR: two
